pIC50: −log10 of the molar value.
Molecular target: Recombinant human cathepsin S (CatS) (Homo sapiens, UniProt P25774)
Assay: biochemical

The chains behind the UniProt entries cited, without tags or fusion partners. Residues count along the entry.
UniProt P25774, 115-331: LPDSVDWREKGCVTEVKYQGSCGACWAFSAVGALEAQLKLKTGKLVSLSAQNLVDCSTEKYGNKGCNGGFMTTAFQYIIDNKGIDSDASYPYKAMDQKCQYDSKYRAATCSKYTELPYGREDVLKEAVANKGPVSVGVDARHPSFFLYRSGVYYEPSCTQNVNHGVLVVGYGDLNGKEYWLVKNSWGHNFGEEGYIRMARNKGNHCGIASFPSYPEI

| SMILES | pIC50 |
| --- | --- |
| CS(=O)(=O)N1CCc2c(c(-c3ccc(C(F)(F)F)c(SCCN4CCC(F)(F)CC4)c3)nn2C[C@@H](O)CN2CC3CCCC3C2)C1 (stereo partly drawn) [Example 612, (2S)-1-{3-[3-{[2-(4,4-Difluoropiperidin-1-yl)ethyl]sulfanyl}-4-(trifluoromethyl)phenyl]-5-(methylsulfonyl)-4,5,6,7-tetrahydro-1H-pyrazolo[4,3-c]pyridin-1-yl}-3-(hexahydrocyclopenta[c]pyrrol-2(1H)-yl)propan-2-ol] | 7.05 |
| CN(C)C1CCN(CCSc2cc(-c3nn(CCCN4CCC(N5CCCC5=O)CC4)c4c3CN(S(C)(=O)=O)CC4)ccc2C(F)(F)F)CC1 [Example 34, 1-{1-[3-(3-{3-[2-(4-Dimethylamino-piperidin-1-yl)-ethylsulfanyl]-4-trifluoromethyl-phenyl}-5-methanesulfonyl-4,5,6,7-tetrahydro-pyrazolo[4,3-c]pyridin-1-yl)-propyl]-piperidin-4-yl}-pyrrolidin-2-one] | 5.80 |
| CC(=O)NC1CCN(CC(O)Cn2nc(-c3ccc(C(F)(F)F)c(SCCN4CCC(F)CC4)c3)c3c2CCN(S(C)(=O)=O)C3)C1 (stereo not shown) [Example 619, N-[1-(3-{3-[3-{[2-(4-Fluoropiperidin-1-yl)ethyl]sulfanyl}-4-(trifluoromethyl)phenyl]-5-(methylsulfonyl)-4,5,6,7-tetrahydro-1H-pyrazolo[4,3-c]pyridin-1-yl}-2-hydroxypropyl)pyrrolidin-3-yl]acetamide] | 6.60 |
| COCC(=O)N1CCc2c(c(-c3ccc(C(F)(F)F)c(SCCN4CCOCC4)c3)nn2CC(O)CN2CCCCC2)C1 (stereo not shown) [Example 335, 1-(5-[(Methyloxy)acetyl]-3-{3-[(2-morpholin-4-ylethyl)sulfanyl]-4-(trifluoromethyl)phenyl}-4,5,6,7-tetrahydro-1H-pyrazolo[4,3-c]pyridin-1-yl)-3-piperidin-1-ylpropan-2-ol] | 5.86 |
| CS(=O)(=O)N1CCc2c(c(-c3ccc(Cl)c(SCCOc4ccccc4)c3)nn2CCCN2CCOCC2)C1 [Example 133, 3-[4-Chloro-3-(2-phenoxy-ethylsulfanyl)-phenyl]-5-methanesulfonyl-1-(3-morpholin-4-yl-propyl)-4,5,6,7-tetrahydro-1H-pyrazolo[4,3-c]pyridine] | 6.22 |
| CN1CCCN(C(=O)CSc2cc(-c3nn(CCCN4CCC(N5CCCC5=O)CC4)c4c3CN(S(C)(=O)=O)CC4)ccc2C(F)(F)F)CC1 [Example 96, 1-{1-[3-(5-Methanesulfonyl-3-{3-[2-(4-methyl-[1,4]diazepan-1-yl)-2-oxo-ethylsulfanyl]-4-trifluoromethyl-phenyl}-4,5,6,7-tetrahydro-pyrazolo[4,3c]pyridin-1-yl)-propyl]-piperidin-4-yl}-pyrrolidin-2-one] | 6.38 |
| CS(=O)(=O)NC1CCN(C[C@H](O)Cn2nc(-c3ccc(C(F)(F)F)c(SCCN4CCC(F)CC4)c3)c3c2CCNC3)CC1 [Example 477, N-{1-[(2S)-3-{3-[3-{[2-(4-Fluoropiperidin-1-yl)ethyl]sulfanyl}-4-(trifluoromethyl)phenyl]-4,5,6,7-tetrahydro-1H-pyrazolo[4,3-c]pyridin-1-yl}-2-hydroxypropyl]piperidin-4-yl}methanesulfonamide] | 5.34 |
| CSCC(=O)N1CCc2c(c(-c3ccc(C(F)(F)F)c(SCCN4CCC(F)CC4)c3)nn2CC(O)CN2CCCCC2)C1 (stereo not shown) [Example 442, 1-{3-[3-{[2-(4-Fluoropiperidin-1-yl)ethyl]sulfanyl}-4-(trifluoromethyl)phenyl]-5-[(methylsulfanyl)acetyl]-4,5,6,7-tetrahydro-1H-pyrazolo[4,3-c]pyridin-1-yl}-3-piperidin-1-ylpropan-2-ol] | 6.70 |
| O=C(CSc1cc(-c2nn(CC(O)CN3CCN(c4ccc(F)cc4)CC3)c3c2CNCC3)ccc1C(F)(F)F)N1CCCC1 (stereo not shown) [Example 397, 1-[4-(4-Fluorophenyl)piperazin-1-yl]-3-(3-{3-[(2-oxo-2-pyrrolidin-1-ylethyl)sulfanyl]-4-(trifluoromethyl)phenyl}-4,5,6,7-tetrahydro-1H-pyrazolo[4,3-c]pyridin-1-yl)propan-2-ol] | 6.27 |
| CC(C)S(=O)(=O)N1CCc2c(c(-c3ccc(C(F)(F)F)c(SCCN4CCC(F)CC4)c3)nn2C[C@@H](O)CN2CCCCC2)C1 [Example 558, (2S)-1-{3-[3-{[2-(4-Fluoropiperidin-1-yl)ethyl]sulfanyl}-4-(trifluoromethyl)phenyl]-5-[(1-methylethyl)sulfonyl]-4,5,6,7-tetrahydro-1H-pyrazolo[4,3-c]pyridin-1-yl}-3-piperidin-1-ylpropan-2-ol] | 6.46 |
| CC1(O)CCN(CC(O)Cn2nc(-c3ccc(C(F)(F)F)c(SCC(=O)N4CCCC4)c3)c3c2CCNC3)CC1 (stereo not shown) [Example 301, 1-[2-Hydroxy-3-(3-{3-[(2-oxo-2-pyrrolidin-1-ylethyl)sulfanyl]-4-(trifluoromethyl)phenyl}-4,5,6,7-tetrahydro-1H-pyrazolo[4,3-c]pyridin-1-yl)propyl]-4-methylpiperidin-4-ol] | 5.07 |
| Oc1ccc(N2CCN(CC(O)Cn3nc(-c4ccc(C(F)(F)F)c(SCCN5CCCCC5)c4)c4c3CCNC4)CC2)cc1 (stereo not shown) [Example 384, 4-{4-[2-Hydroxy-3-(3-{3-[(2-piperidin-1-ylethyl)sulfanyl]-4-(trifluoromethyl)phenyl}-4,5,6,7-tetrahydro-1H-pyrazolo[4,3-c]pyridin-1-yl)propyl]piperazin-1-yl}phenol] | 5.65 |
| CS(=O)(=O)N1CCc2c(c(-c3ccc(C(F)(F)F)c(SCCN4CCC(F)CC4)c3)nn2C[C@@H](O)CN2CCCC(C(=O)O)C2)C1 (stereo partly drawn) [Example 617, 1-[(2S)-3-{3-[3-{[2-(4-Fluoropiperidin-1-yl)ethyl]sulfanyl}-4-(trifluoromethyl)phenyl]-5-(methylsulfonyl)-4,5,6,7-tetrahydro-1H-pyrazolo[4,3-c]pyridin-1-yl}-2-hydroxypropyl]piperidine-3-carboxylic acid] | 6.62 |
| CS(=O)(=O)N1CCc2c(c(-c3ccc(C(F)(F)F)c(SCC(=O)N4CCCC4)c3)nn2CC(O)CN2CCC(N3CCCC3=O)CC2)C1 (stereo not shown) [Example 65, 1-[1-(2-Hydroxy-3-{5-methanesulfonyl-3-[3-(2-oxo-2-pyrrolidin-1-yl-ethylsulfanyl)-4-trifluoromethyl-phenyl]-4,5,6,7-tetrahydro-pyrazolo[4,3-c]pyridin-1-yl}-propyl)-piperidin-4-yl]-pyrrolidin-2-one] | 7.00 |

Other lines, results leading:

| pIC50 | SMILES |
| --- | --- |
| 7.15 | CC(=O)OCC(=O)N1CCc2c(c(-c3ccc(C(F)(F)F)c(SCCNC(=O)OCc4ccccc4)c3)nn2CC(O)CN2CCC(c3ccccn3)CC2)C1 (stereo not shown) [Example 885, 2-{1-[2-Hydroxy-3-(4-pyridin-2-ylpiperidin-1-yl)propyl]-3-[3-{[2-({[(phenylmethyl)oxy]carbonyl}amino)ethyl]sulfanyl}-4-(trifluoromethyl)phenyl]-1,4,6,7-tetrahydro-5H-pyrazolo[4,3-c]pyridin-5-yl}-2-oxoethyl acetate] |
| 7.19 | CS(=O)(=O)N1CCc2c(c(-c3ccc(C(F)(F)F)c(SCCN4CCCC(F)C4)c3)nn2C[C@@H](O)CN2CCC(NC(=O)CO)CC2)C1 (stereo partly drawn) [Example 705, N-{1-[(2S)-3-{3-[3-{[2-(3-Fluoropiperidin-1-yl)ethyl]sulfanyl}-4-(trifluoromethyl)phenyl]-5-(methylsulfonyl)-4,5,6,7-tetrahydro-1H-pyrazolo[4,3-c]pyridin-1-yl}-2-hydroxypropyl]piperidin-4-yl}-2-hydroxyacetamide] |
| 7.26 | CS(=O)(=O)N1CCc2c(c(-c3ccc(C(F)(F)F)c(SCCN4CCC(F)CC4)c3)nn2CC(O)CN2CCC(N3CC(O)CC3=O)CC2)C1 (stereo not shown) [Example 823, 1-[1-(3-{3-[3-{[2-(4-Fluoropiperidin-1-yl)ethyl]sulfanyl}-4-(trifluoromethyl)phenyl]-5-(methylsulfonyl)-4,5,6,7-tetrahydro-1H-pyrazolo[4,3-c]pyridin-1-yl}-2-hydroxypropyl)piperidin-4-yl]-4-hydroxypyrrolidin-2-one] |
| 6.08 | CS(=O)(=O)N1CCc2c(c(-c3ccc(C(F)(F)F)c(SCCN4CCC(N5CCCC5)CC4)c3)nn2CC(O)CN2CCC(O)(c3ccccc3)CC2)C1 (stereo not shown) [Example 881, 1-(2-Hydroxy-3-{5-(methylsulfonyl)-3-[3-{[2-(4-pyrrolidin-1-ylpiperidin-1-yl)ethyl]sulfanyl}-4-(trifluoromethyl)phenyl]-4,5,6,7-tetrahydro-1H-pyrazolo[4,3-c]pyridin-1-yl}propyl)-4-phenylpiperidin-4-ol] |
| 6.96 | CC(=O)N1CCN(CCSc2cc(-c3nn(CC(O)CN4CCC(c5ccncc5)CC4)c4c3CN(S(C)(=O)=O)CC4)ccc2C(F)(F)F)CC1 (stereo not shown) [Example 828, 1-{3-[3-{[2-(4-Acetylpiperazin-1-yl)ethyl]sulfanyl}-4-(trifluoromethyl)phenyl]-5-(methylsulfonyl)-4,5,6,7-tetrahydro-1H-pyrazolo[4,3-c]pyridin-1-yl}-3-(4-pyridin-4-ylpiperidin-1-yl)propan-2-ol] |
| 6.57 | CS(=O)(=O)N1CCc2c(c(-c3ccc(C(F)(F)F)c(SCCN4CCOCC4)c3)nn2CC(O)CN2CCC(c3n[nH]c(=O)[nH]3)CC2)C1 (stereo not shown) [Example 683, 5-(1-{2-Hydroxy-3-[5-(methylsulfonyl)-3-{3-[(2-morpholin-4-ylethyl)sulfanyl]-4-(trifluoromethyl)phenyl}-4,5,6,7-tetrahydro-1H-pyrazolo[4,3-c]pyridin-1-yl]propyl}piperidin-4-yl)-2,4-dihydro-3H-1,2,4-triazol-3-one] |
| 6.20 | CS(=O)(=O)N1CCc2c(c(-c3ccc(C(F)(F)F)c(SCCN4CCCC4)c3)nn2CC(O)CN2CCC(N3CCCCC3)CC2)C1 (stereo not shown) [Example 640, 1-(1,4′-Bipiperidin-1′-yl)-3-[5-(methylsulfonyl)-3-{3-[(2-pyrrolidin-1-ylethyl)sulfanyl]-4-(trifluoromethyl)phenyl}-4,5,6,7-tetrahydro-1H-pyrazolo[4,3-c]pyridin-1-yl]propan-2-ol] |
| 8.00 | CS(=O)(=O)N1CCc2c(c(-c3ccc(C(F)(F)F)c(SCCN4CCCCC4)c3)nn2CC(O)CN2CCN(c3ncccc3Cl)CC2)C1 (stereo not shown) [Example 799, 1-[4-(3-Chloropyridin-2-yl)piperazin-1-yl]-3-[5-(methylsulfonyl)-3-{3-[(2-piperidin-1-ylethyl)sulfanyl]-4-(trifluoromethyl)phenyl}-4,5,6,7-tetrahydro-1H-pyrazolo[4,3-c]pyridin-1-yl]propan-2-ol] |

Reference: patent US20090099157A1, “TETRAHYDRO-PYRAZOLO-PYRIDINE THIOETHER MODULATORS OF CATHEPSIN S” (priority 2007, published 2009)
